Target: M3 receptor (Homo sapiens (Human), UniProt P20309)
Test: M3 receptor affinity test (3H-NMS competition)
Assay type: binding
Details: read-out: IC50, activity against the M3 receptor in vitro; 0.2 nM 3H-NMS, M3 receptor membrane protein, 2 h at room temperature
Experimental: M3 receptor is a G protein-coupled receptor. In this experiment, the activity of test compounds against the M3 receptor in vitro was assayed by the competition of radioisotope labeled NMS and non-isotope labeled test compounds for an M3 binding site.
The experiment was performed by a radioisotope affinity assay. The M3 receptor membrane protein was prepared at 10 μg/mL by Biology Department of WuXi AppTec, and compounds were serially diluted in a 2.5-fold gradient in DMSO to obtain 10 concentrations. Radioisotope 3H-NMS was prepared at 0.2 nM in an assay buffer (10 mM HEPES, 1 mM MgCl2, pH 7.40). In formal testing, the experimental system comprising 1 […], 100 μL of M3 receptor membrane protein and 100 μL of radioisotope was shaken in a shaker at 300 RPM for 2 h at room temperature. A GF/C plate (Perkin Elmer, Cat No. 6055690) was prefoamed with 0.3% PEI, and the membrane proteins in the reaction solution were collected by filtration onto the GF/C plate. The signal values were read by a Perkin Elmer Microbeta2 instrument and the inhibition rate for each concentration point was shown as a percentage.

By UniProt entry, the sequences of proteins in these tests, tags left out.
UniProt P20309, whole entry, looked up: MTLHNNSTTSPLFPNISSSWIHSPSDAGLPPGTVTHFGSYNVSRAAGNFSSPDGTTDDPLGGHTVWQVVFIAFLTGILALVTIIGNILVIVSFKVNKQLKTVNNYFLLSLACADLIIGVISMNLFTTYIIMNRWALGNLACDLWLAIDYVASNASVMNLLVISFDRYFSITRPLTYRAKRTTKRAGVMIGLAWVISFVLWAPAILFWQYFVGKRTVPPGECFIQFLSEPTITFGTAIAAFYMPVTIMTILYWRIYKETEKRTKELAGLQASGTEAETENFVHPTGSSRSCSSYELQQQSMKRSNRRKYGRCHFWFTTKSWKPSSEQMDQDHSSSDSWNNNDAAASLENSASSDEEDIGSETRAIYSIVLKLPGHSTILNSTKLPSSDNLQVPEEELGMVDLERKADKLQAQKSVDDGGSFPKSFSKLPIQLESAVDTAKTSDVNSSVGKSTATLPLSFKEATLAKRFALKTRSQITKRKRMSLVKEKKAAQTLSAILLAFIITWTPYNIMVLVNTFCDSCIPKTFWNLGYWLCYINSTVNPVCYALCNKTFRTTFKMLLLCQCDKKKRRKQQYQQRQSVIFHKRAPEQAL

Row | Compound | IC50
1 | O=C(OC1CCN(CCCn2nnc3cc(CNC[C@H](O)c4ccc(O)c5[nH]c(=O)ccc45)c4c(c32)CCC4)CC1)C(O)(c1ccc(Cl)s1)c1ccc(Cl)s1 | 5.57 nM
2 | O=C(OC1CCN(CCCn2nnc3cc(CNC[C@H](O)c4ccc(O)c5[nH]c(=O)ccc45)c4c(c32)CCC4)CC1)C(O)(c1cccs1)c1cccs1 | 1.11 nM

Reference: US20230322745A1, “FUSED TRICYCLIC DERIVATIVE AND PHARMACEUTICAL APPLICATION THEREOF” (CHIA TAI TIANQING PHARMACEUTICAL GROUP CO., LTD., priority 2020, published 2023)
